For this experiment, the system named is MC3T3-E1 cells. Nature of the experiment: Release of BMP-2 from CHP: ALP activity in osteoblast-like cells. To be noted: MC3T3-E1 cells treated with rhBMP-2 or BMP/CHP. Format: cell-based. How it is done: Finally, in order to investigate the release of BMP-2 from CHP, MC3T3-E1 cells, which were osteoblast-like strains, were treated with rhBMP-2 and BMP/CHP to compare their ALP activities.

B1: rhBMP-2: bone morphogenetic protein, molecule which induces heterotopic osteogenesis (protein, UniProt P12643 283-396, looked up)
Bone morphogenetic protein 2: QAKHKQRKRLKSSCKRHPLYVDFSDVGWNDWIVAPPGYHAFYCHGECPFPLADHLNSTNHAIVQTLVNSVNSKIPKACCVPTELSAISMLYLDENEKVVLKNYQDMVVEGCGCR
Regarding B1, the ALP activity result is reported as “increase in ALP activity in a BMP dose-dependent manner”.

The values above are taken from patent US20100221345A1, “OSTEOGENIC BIOMATERIAL CONTAINING OSTEOGENESIS PROMOTING SUBSTANCE AND NANOGEL” (NATIONAL UNIVERSITY CORPORATION TOKYO MEDICAL AND, priority 2006, published 2010).
